Target: Beta-secretase 1 (Homo sapiens, UniProt P56817)
Test: BACE Assay

Compound: CO[C@H]1CC[C@]2(CC1)Cc1ccc(Br)cc1C21N=C(N)N(C)C1=O (stereo partly specified)
- IC50: 32.3 nM

Source: BindingDB's records for US10336717, “Inhibitors of beta-secretase” (2019)
